Data taken from ChEMBL document CHEMBL5329216, “Discovery of conformationally constrained c-Abl inhibitors with potential neuroprotective effects against Parkinson's disease” (Bioorg Med Chem, 2023).

Tested on: SH-SY5Y
Assay: Neuroprotective activity against MPP+-induced human SH-SY5Y cells assessed as reduction in cell death measured after 48 hrs by MTT assay
Format: functional, cell-based

Cc1cn(-c2cc(NC(=O)c3ccc(C)c(Nc4nccc(-c5cccnc5)n4)c3)cc(C(F)(F)F)c2)cn1 [NILOTINIB]
Activity: Dose-Dependent Effect
